Among the data in ChEMBL document CHEMBL1125513, “Substituted 1-(aminomethyl)-2-(arylacetyl)-1,2,3,4-tetrahydroisoquinolines: a novel class of very potent antinociceptive agents with varying degrees of selectivity for kappa and mu opioid receptors” (1992) are ED50 values, retold here.

The nature of assay [1]: In vivo antinociceptive activity was determined using mouse abdominal constriction test following subcutaneous administration. As to conditions: Abdomen.
The nature of assay [2]: In vivo antinociceptive activity was determined using mouse tail-flick test following subcutaneous administration. A general note: Thermal pain tests record how soon the animal reacts.
Another assay concerns Mus musculus. Briefly: In vivo antinociceptive activity was determined using mouse hot plate test following subcutaneous administration.

Values joined by “and” are separate entries in the source; they are usually repeats but may differ in a detail not shown here. Equal values may be shown once.

On to `C[C@@H]1CN(C(=O)Cc2ccc(Cl)c(Cl)c2)[C@@H](CN2CCCC2)c2ccccc21`, for which the ED50 (usually the midpoint of the dose-response relation) in assay [1] amounted to 0.031 µmol/kg; in assay [2], 0.06 µmol/kg.
Compound `O=C(Cc1ccc(Cl)c(Cl)c1)N1CCc2ccc(O)cc2C1CN1CCCC1` (stereo not drawn) displayed an ED50 in assay [2] above 2.5 µmol/kg.
The compound `CC1(C)Cc2ccccc2C(CN2CCCC2)N1C(=O)Cc1ccc(Cl)c(Cl)c1.Cl` (stereo not drawn) yielded an ED50 in assay [2] above 2.5 µmol/kg.
As to `Cl.O=C(Cc1ccc(Cl)c(Cl)c1)N1CCc2c(O)cccc2C1CN1CCCC1` (stereo not drawn), the ED50 in assay [1] was 0.005 µmol/kg; in assay [2] it was 0.015 µmol/kg; in the assay on Mus musculus it was above 0.13 µmol/kg.
On to `C[C@@H]1Cc2ccccc2[C@H](CN2CCCC2)N1C(=O)Cc1ccc(Cl)c(Cl)c1`, for which the ED50 in assay [1] came out at 0.024 µmol/kg; in assay [2], 0.051 µmol/kg.
For the compound `O=C(Cc1ccc(Cl)c(Cl)c1)N1CCc2c(O)cccc2C1CN1CCCC1` (stereo not drawn), the ED50 in assay [1] was determined as 0.012 µmol/kg; in assay [2], 0.022 µmol/kg.
In turn, `CC1c2ccccc2C(CN2CCCC2)N(C(=O)Cc2ccc(Cl)c(Cl)c2)C1C.Cl` (stereo not drawn) came in with an ED50 in assay [2] above 2.5 µmol/kg.
Take `O=C(Cc1ccc(Cl)c(Cl)c1)N1CCc2cc(O)ccc2C1CN1CCCC1` (stereo not drawn): in assay [2], the ED50 turned out to be 0.59 µmol/kg.
In the case of `C[C@@H]1Cc2ccccc2[C@H](CN2CCCC2)N1C(=O)Cc1ccc(Cl)c(Cl)c1.Cl`, the ED50 in assay [1] amounted to 0.05 µmol/kg; in assay [2] it was 0.078 µmol/kg.
For the compound `C[C@@H]1CN(C(=O)Cc2ccc(Cl)c(Cl)c2)[C@@H](CN2CCCC2)c2ccccc21.Cl`, the ED50 was found to be 0.086 µmol/kg in assay [1] and 0.11 µmol/kg in assay [2].
On the same counts, the results for `O=C(Cc1ccc(Cl)c(Cl)c1)N1CCc2ccccc2C1CN1CCCC1` (stereo not drawn) are 0.017 µmol/kg and 0.02 µmol/kg.
With `CN(C(=O)Cc1ccc(Cl)c(Cl)c1)C1CCCCC1N1CCCC1` (stereo not drawn), the ED50 in assay [1] was 1.16 µmol/kg; with Mus musculus, above 51.2 µmol/kg.
For the compound `CC1(C)CN(C(=O)Cc2ccc(Cl)c(Cl)c2)C(CN2CCCC2)c2ccccc21.Cl` (stereo not drawn), the ED50 in assay [1] is 0.102 µmol/kg and 0.206 µmol/kg; in assay [2], 0.755 µmol/kg and 1.64 µmol/kg; with Mus musculus, above 7.5 µmol/kg.
As to `Cc1cccc2c1CCN(C(=O)Cc1ccc(Cl)c(Cl)c1)C2CN1CCCC1.Cl` (stereo not drawn), the ED50 in assay [1] worked out at 0.395 µmol/kg; in assay [2], 0.827 µmol/kg.
`C[C@@H]1[C@@H](C)c2ccccc2[C@@H](CN2CCCC2)N1C(=O)Cc1ccc(Cl)c(Cl)c1` registered a median effective dose (ED50) in assay [2] above 2.5 µmol/kg.
Consider `Cl.O=C(Cc1ccc(Cl)c(Cl)c1)N1CCc2c(ccc(O)c2O)C1CN1CCCC1` (stereo not drawn), for which the ED50 in assay [1] is 0.985 µmol/kg; in assay [2], 1.06 µmol/kg.
Compound `C[C@@H]1Cc2ccccc2[C@@H](CN2CCCC2)N1C(=O)Cc1ccc(Cl)c(Cl)c1.Cl` had an ED50 in assay [2] above 2.5 µmol/kg.
`O=C(Cc1ccc(Cl)c(Cl)c1)N1CCc2cccc(O)c2C1CN1CCCC1` (stereo not drawn) returned an ED50 in assay [2] above 2.5 µmol/kg.
For the compound `CSc1cccc2c1CCN(C(=O)Cc1ccc(Cl)c(Cl)c1)C2CN1CCCC1.Cl` (stereo not drawn), the ED50 in assay [1] is 0.449 µmol/kg; in assay [2], 0.795 µmol/kg.
Take `Cl.O=C(Cc1ccc(Cl)c(Cl)c1)N1CCc2c(Cl)cccc2C1CN1CCCC1` (stereo not drawn): the results for the ED50 in assay [1] and in assay [2] were above 0.457 µmol/kg and 1.94 µmol/kg, respectively.
Taken in the same sequence, the figures for `Cl.O=C(Cc1ccc(Cl)c(Cl)c1)N1CCc2c(F)cccc2C1CN1CCCC1` (stereo not drawn) were 0.123 µmol/kg and 0.265 µmol/kg.
On the same counts, the results for `COc1cccc2c1CCN(C(=O)Cc1ccc(Cl)c(Cl)c1)C2CN1CCCC1` (stereo not drawn) are 0.108 µmol/kg and 0.125 µmol/kg.
On the same counts, the results for `C[C@@H]1[C@@H](C)c2ccccc2[C@H](CN2CCCC2)N1C(=O)Cc1ccc(Cl)c(Cl)c1` are 0.025 µmol/kg and 0.112 µmol/kg.
Turning to `C[C@H]1CN(C(=O)Cc2ccc(Cl)c(Cl)c2)[C@@H](CN2CCCC2)c2ccccc21.Cl`, the ED50 turned out to be 0.676 µmol/kg in assay [1] and 1.1 µmol/kg in assay [2].
